Most compounds without a hit are left out; they make up all but 0.43% or so of the library.
GIV Gai3 FP – inhibitors of GIV peptide binding to Galpha-i3, primary screen, biochemical, fluorescence polarization, FITC-GIV GBA peptide, rat Galphai3; 90 min; stronger effect = lower value; scaled: aluminum fluoride 0%, vehicle 100%; percent of control (FP), % (test concentration not listed); 0.42% of 210,000 active; AID 1224905, 2016;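 active = replicate mean at 85% of control or lower, very high polarization wells dropped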;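 also: wells of about 15 µL received 100 nL stock; the first replicate is given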
HCMV NEC inh – disrupts HCMV UL50-UL53 complex binding; HTRF UL50-UL53 interaction, normalized percent inhibition; inhibition, % (no concentration beside the values); 190,000 compounds, 0.15% hits; AID 1918969; in the data active = inhibition above about 27%, passing the limit was not always enough
GIV-Gai FP conf – confirmation of inhibitors of GIV binding to rat Galpha-i3 | shares compounds with GIV Gai3 FP | FITC-GIV peptide binding to Galphai3, fluorescence polarization; hits give low values | fluorescence polarization, mP at 100 µM | 580 compounds, 38% hits | AID 1259350;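 active = inhibition score of 15 or more, meaning 100 minus mean polarization as percent of control over three replicates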;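 note: lower mP means peptide displaced from Galphai3 so more inhibition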
GIV-Gai AS conf – GIV-Galpha-i3 inhibition, AlphaScreen confirmation; shares compounds with GIV Gai3 FP; 580 compounds, 39% hits; AlphaScreen Galphai3-GIV binding, purified proteins, 90 min; hits give low values; AlphaScreen counts at 100 µM;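 active = inhibition score at or above a set limit, where the score is 100 minus the three-replicate mean percent of control signal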
Numbers without * were called inactive; · = no result.

1) Cc1ccc(S(=O)(=O)N2CCCC2c2cc(C(C)C)no2)cc1 (stereo unspecified)
2) CCOC(=O)c1cc(S(=O)(=O)N2CCCC2C(=O)N2CCCC2)cn1C (stereo unspecified)
3) COc1ccc(C2=Nc3ccccc3N=C(c3cc(Cl)ccc3O)C2)cc1
4) C#CCn1c(=NC(=O)C(C)(C)C)sc2cccc(OCC)c21
5) O=C(/C=C/c1cn(-c2ccccc2)nc1-c1ccc(F)cc1)NCc1ccco1
6) Cc1cc2c3c(c(N)cc(S(=O)(=O)O)c3n1)C(=O)c1ccccc1-2
screen / no. | 1 | 2 | 3 | 4 | 5 | 6
GIV Gai3 FP | 111 | 105 | 104 | 102 | · | 126
HCMV NEC inh | · | -19 | · | 6 | -19 | ·
GIV-Gai FP conf | · | · | · | · | · | ·
GIV-Gai AS conf | · | · | · | · | · | ·

7) Cc1cc2c3c(c(Br)cc(S(=O)(=O)O)c3n1)C(=O)c1ccccc1-2
8) COc1cc(/C=C2\C(=O)Nc3ccc(Cl)cc32)cc(OC)c1OC
9) O=C(Nc1cccc(-c2cnco2)c1)c1ccc(C(F)(F)F)cc1
10) CC(=O)Nc1ccc(NC(=O)c2ccco2)cc1
11) O=C(O)c1cc(NC(=O)c2ccc(NC(=O)c3ccco3)cc2)cc(C(=O)O)c1
12) CN1C(=O)Cc2ccccc2C1=O
screen / no. | 7 | 8 | 9 | 10 | 11 | 12
GIV Gai3 FP | 83* | · | 105 | 94 | 79* | 80*
HCMV NEC inh | · | -9 | -21 | -1 | -34 | 67*
GIV-Gai FP conf | 25* | · | · | · | 64* | 59*
GIV-Gai AS conf | 2617* | · | · | · | 22001* | 17985*

13) CN1C(=O)Cc2ccccc21
14) CN(CC(=O)N1CCC(Cc2ccccc2)CC1)S(=O)(=O)c1cccs1
15) CC1(C)Cc2ccccc2C(C2=C(O)CCCC2=O)=N1
16) CC1(C)Cc2ccccc2C2=NNC(=O)C2=N1
17) CCOCCCNC(=O)NCCn1nnc2cc(C(=O)N(C)C)ccc21
18) O=C(O)c1cc(O)[nH]c(=O)c1
screen / no. | 13 | 14 | 15 | 16 | 17 | 18
GIV Gai3 FP | 101 | · | 105 | 76* | 105 | 78*
HCMV NEC inh | -3 | -18 | · | -29 | 4 | 83*
GIV-Gai FP conf | · | · | · | 54* | · | 42*
GIV-Gai AS conf | · | · | · | 30303 | · | 10996*

19) O=C(O)c1cc(O)c(O)c(O)c1
20) O=C(C1CCCCC1)N1CCN(c2ncnc3c2cnn3-c2ccccc2)CC1
21) O=C(NC1CCCCC1)c1ccc2c(Cl)c3c(nc2c1)CCCC3
22) Cc1cc(C)cc(N2C(=O)N(Cc3cc(=O)n4ccccc4n3)c3ccccc3S2(=O)=O)c1
23) O=C1N(Cc2cc(=O)n3ccccc3n2)c2ccccc2S(=O)(=O)N1c1ccc(Cl)cc1
24) CCOc1ccc(C(=O)N(CC2COc3ccccc3C2)C(C)C)cc1OCC (stereo unspecified)
screen / no. | 19 | 20 | 21 | 22 | 23 | 24
GIV Gai3 FP | · | 98 | 98 | 107 | 85* | 103
HCMV NEC inh | -20 | -24 | · | · | · | -29
GIV-Gai FP conf | · | · | · | · | 51* | ·
GIV-Gai AS conf | · | · | · | · | 35949 | ·

Arranged by molecular weight (rising): some entries from above.
18) O=C(O)c1cc(O)[nH]c(=O)c1
21) O=C(NC1CCCCC1)c1ccc2c(Cl)c3c(nc2c1)CCCC3
20) O=C(C1CCCCC1)N1CCN(c2ncnc3c2cnn3-c2ccccc2)CC1
24) CCOc1ccc(C(=O)N(CC2COc3ccccc3C2)C(C)C)cc1OCC (stereo unspecified)
screen / no. | 18 | 21 | 20 | 24
GIV Gai3 FP | 78* | 98 | 98 | 103
HCMV NEC inh | 83* | · | -24 | -29
GIV-Gai FP conf | 42* | · | · | ·
GIV-Gai AS conf | 10996* | · | · | ·

(further entries)
25) Cn1c(C2CCS(=O)(=O)C2)n[nH]c1=S (stereo unspecified)
26) Cc1ccc(-c2noc(-c3ccc(=O)n(CC(=O)Nc4ccc5c(c4)OCCO5)c3)n2)cc1
27) Cc1cc(C(F)(F)F)c(C#N)c(=O)[nH]1
28) Cc1cc(C(F)(F)F)[nH]c(=O)c1C#N
29) COc1cc(-c2nc(C=Nc3ccc4ccccc4c3)c(O)o2)cc(OC)c1OC
30) COC(=O)c1ccc(N=Cc2nc(-c3cc(OC)c(OC)c(OC)c3)oc2O)cc1
screen / no. | 25 | 26 | 27 | 28 | 29 | 30
GIV Gai3 FP | · | 98 | 40* | · | 104 | 95
HCMV NEC inh | -18 | · | · | -10 | · | ·
GIV-Gai FP conf | · | · | 66 | · | · | 58
GIV-Gai AS conf | · | · | 51023 | · | · | 54563

31) COc1ccccc1/C=C1\C(=O)N(c2ccc(C)cc2)C2=C1C(c1ccccc1)N(c1ccc(C)cc1)C2=O (stereo unspecified)
32) Cc1ccc(N2C(=O)/C(=C\c3ccc(C(C)C)cc3)C3=C2C(=O)N(c2ccc(C)cc2)C3c2ccccc2)cc1 (stereo unspecified)
33) COc1cc2c(cc1OC)n(CC(=O)c1cccc(Cl)c1)c(=O)n1nc(-c3ccccc3)nc21
34) N#Cc1cc(C(=O)Nc2ccccc2)c(N)[nH]c1=S
35) O=C(CCN1C(=O)/C(=C/c2ccc3c(c2)OCO3)SC1=S)NC1=NCCS1
36) O=C(CCN1C(=O)/C(=C/c2ccc3c(c2)OCO3)SC1=S)Nc1ccccc1
screen / no. | 31 | 32 | 33 | 34 | 35 | 36
GIV Gai3 FP | 100 | 85* | 103 | · | 84* | ·
HCMV NEC inh | · | · | · | -37 | -51 | -8
GIV-Gai FP conf | · | 70 | · | · | 60 | ·
GIV-Gai AS conf | · | 46540 | · | · | 47879 | ·

37) Cc1onc(-c2ccccc2Cl)c1C(=O)Nc1cc2c(cc1N1CCCCC1)n(C)c(=O)n2C
38) Cc1cc2c(=O)[nH]nc(N)c2c(=O)[nH]1
39) Nc1n[nH]c2cc(=O)[nH]c(O)c12
40) CNC(=O)CCCc1nc(-c2ccc(OC)cc2)no1
41) COc1ccc(-c2noc(CCCC(=O)Nc3nccs3)n2)cc1
42) OCC1O[C@H]([S-])[C@@H](O)C(O)[C@@H]1O.[Au+] (stereo partly specified)
screen / no. | 37 | 38 | 39 | 40 | 41 | 42
GIV Gai3 FP | 109 | 105 | 48* | 101 | 91 | 65*
HCMV NEC inh | 1 | -22 | 110* | -6 | -18 | -111
GIV-Gai FP conf | · | · | 45* | · | 65 | 57*
GIV-Gai AS conf | · | · | 7988* | · | 44685 | 6583*

43) OCC1O[C@H](O)C(Cl)C(O)C1O (stereo partly specified)
44) O=C(NCc1ccc2c(c1)OCO2)C1CCn2c(nc3ccccc32)C1 (stereo unspecified)
45) N#CC1=C(SCc2ccccc2)SC(CO)NC1=O (stereo unspecified)
46) N#CC1=C(SCc2ccccc2)SC(c2ccc(C(=O)O)cc2)NC1=O (stereo unspecified)
47) CCOC(=O)C(Sc1nc2c(c(=O)[nH]1)CCCC2)c1ccccc1 (stereo unspecified)
48) CCOc1cc(/C=C2\SC(=S)NC2=O)cc(Cl)c1OC(=O)c1ccc(OC)cc1
screen / no. | 43 | 44 | 45 | 46 | 47 | 48
GIV Gai3 FP | 105 | 104 | 106 | 74* | 104 | 115
HCMV NEC inh | -23 | -34 | -15 | · | -24 | ·
GIV-Gai FP conf | · | · | · | 65 | · | ·
GIV-Gai AS conf | · | · | · | 28170* | · | ·

49) CCOc1cc(C=C2C(=O)NC(=O)NC2=O)cc(Cl)c1OC(=O)c1ccc(OC)cc1
50) CN(C(=O)Cc1cccc2ccccc12)C(C)(C)C#N
51) O=C(O)CC(Sc1nc2sc3c(c2c(=O)[nH]1)CCCC3)C(=O)O (stereo unspecified)
52) O=c1[nH]c(SCCO)nc2sc3c(c12)CCCC3
53) O=C(O)CSc1nc2ccccc2nc1SCC(=O)O
54) Nc1nonc1C(=O)NN=c1c(=O)c2ccccc2c1=O
screen / no. | 49 | 50 | 51 | 52 | 53 | 54
GIV Gai3 FP | 75* | · | 75* | · | · | 80*
HCMV NEC inh | 49* | -9 | · | 0 | -23 | -20
GIV-Gai FP conf | 64 | · | 52* | · | · | 59
GIV-Gai AS conf | 50946 | · | 16638* | · | · | 25933*

55) Nc1nonc1C(=O)NCCN=Cc1ccccc1O
56) O=C(Nc1cccc(F)c1F)C1CCN(c2ncccn2)CC1
57) Cc1ccc(NC(=O)C2CCN(c3ncccn3)CC2)cc1F
58) CCCS(=O)(=O)N1CCCC(C(=O)NC(C)C)C1 (stereo unspecified)
59) C=CCNC(=O)C1CCCN(S(=O)(=O)CCC)C1 (stereo unspecified)
60) C[C@H](O)C(=O)C1=Nc2c(nc(N)[nH]c2=O)NC1
screen / no. | 55 | 56 | 57 | 58 | 59 | 60
GIV Gai3 FP | 106 | 93 | 101 | 107 | 84* | 73*
HCMV NEC inh | -2 | -15 | -12 | -31 | 1 | -88
GIV-Gai FP conf | · | 77 | · | · | 64 | 72
GIV-Gai AS conf | · | 36448 | · | · | 51209 | 29102*

61) CC(O)C(O)[C@H]1CNc2nc(N)[nH]c(=O)c2N1 (stereo partly specified)
62) Cc1ccc(NC(=O)c2c[nH]c(=O)[nH]c2=O)cc1
63) CC(C(=O)N(C)c1ccccc1)N1CCN(c2ccc(C(F)(F)F)cn2)CC1 (stereo unspecified)
64) Cc1ccc2c(c1)c1c3c(nccn32)CCC1
65) Cc1ccc2c(c1)c1c(n2C)C(C#N)CCC1 (stereo unspecified)
screen / no. | 61 | 62 | 63 | 64 | 65
GIV Gai3 FP | 103 | 107 | · | 76* | 96
HCMV NEC inh | -53 | -30 | -36 | -40 | -12
GIV-Gai FP conf | · | · | · | 61* | ·
GIV-Gai AS conf | · | · | · | 13099 | ·

High-throughput results (PubChem)
